From US20210275657A1, “NEOANTIGENS AND USES THEREOF” (BioNTech US Inc., priority 2018, published 2021)

What was measured:
[1] = for Solubility in 5 mM SS in D5W w/ 4% DMSO: 5 mM sodium succinate in D5W; for Solubility in 5 mM SS in D5W w/ 4% DMSO / Solubility in 5 mM SS in D5W w/o DMSO: no polyICLC; for Solubility in 5 mM SS in D5W w/o DMSO: no DMSO
[2] = physchem
[3] = 5 mM sodium succinate in D5W with 4% DMSO, Peptide Solubility (at 0.4 mg/mL) (Y/N), 5 mM SS/D5W with 4% DMSO, 0.4 mg/mL
[4] = 5 mM sodium succinate in D5W with 4% DMSO, Peptide Solubility (at 2 mg/mL) (Y/N), 5 mM SS/D5W with 4% DMSO, 2 mg/mL
[5] = […] sodium succinate in D5W with 4% DMSO, Peptide Solubility (at 0.4 mg/mL) (Y/N), […] SS/D5W with 4% DMSO, 0.4 mg/mL
[6] = […] sodium succinate in D5W with 4% DMSO, Peptide Solubility (at 2 mg/mL) (Y/N), […] SS/D5W with 4% DMSO, 2 mg/mL

Compound | Solubility in 5 mM SS in D5W w/ 4% DMSO [1] | Formulation Observations (at 0.4 mg/mL) ([1]; 5 mM SS/D5W with 4% DMSO) | Formulation Observations (at 2 mg/mL) ([1]; 5 mM SS/D5W with 4% DMSO) | Formulation Observations (at 0.4 mg/mL) ([1]; […] SS/D5W with 4% DMSO) | Formulation Observations (at 2 mg/mL) ([1]; […] SS/D5W with 4% DMSO) | solubility [2, 3] [µg/mL] | solubility [2, 4] [µg/mL] | solubility [2, 5] [µg/mL] | solubility [2, 6] [µg/mL] | Solubility in 5 mM SS in D5W w/o DMSO [1]
CC[C@H](C)[C@H](NC(=O)[C@H](CCCCN)NC(=O)[C@H](CCCCN)NC(=O)[C@H](CCCCN)NC(=O)[C@H](CCCCN)NC(=O)[C@@H](N)CCCCN)C(=O)N[C@@H](CCSC)C(=O)N[C@@H](Cc1ccccc1)C(=O)N[C@@H](C)C(=O)N[C@H](C(=O)N[C@@H](CC(C)C)C(=O)N[C@@H](CCC(N)=O)C(=O)N[C@@H](CCCNC(=N)N)C(=O)N[C@@H](CO)C(=O)N[C@@H](CO)C(=O)N[C@@H](CC(C)C)C(=O)N[C@@H](Cc1c[nH]c2ccccc12)C(=O)N[C@@H](CS)C(=O)N[C@@H](CC(C)C)C(=O)N[C@@H](CS)C(=O)N[C@@H](CO)C(=O)N[C@@H](CC(N)=O)C(=O)N[C@@H](Cc1c[nH]cn1)C(=O)O)[C@@H](C)O [Peptide 12-4K] (H-KKKKKIMFATLQRSSLWCLCSNH-OH) | Yes | – | – | – | – | – | – | – | – | –
CSCC[C@H](NC(=O)[C@H](CCCCN)NC(=O)[C@H](CCCCN)NC(=O)[C@H](CCCCN)NC(=O)[C@@H](N)CCCCN)C(=O)N[C@@H](Cc1ccccc1)C(=O)N[C@@H](C)C(=O)N[C@H](C(=O)N[C@@H](CC(C)C)C(=O)N[C@@H](CCC(N)=O)C(=O)N[C@@H](CCCNC(=N)N)C(=O)N[C@@H](CO)C(=O)N[C@@H](CO)C(=O)N[C@@H](CC(C)C)C(=O)N[C@@H](Cc1c[nH]c2ccccc12)C(=O)N[C@@H](CS)C(=O)N[C@@H](CC(C)C)C(=O)N[C@@H](CS)C(=O)N[C@@H](CO)C(=O)N[C@@H](CC(N)=O)C(=O)N[C@@H](Cc1c[nH]cn1)C(=O)O)[C@@H](C)O [Peptide 12b-4K] (H-KKKKMFATLQRSSLWCLCSNH-OH) | Yes | – | – | – | – | – | – | – | – | –
CSCC[C@H](N)C(=O)N[C@@H](Cc1ccccc1)C(=O)N[C@@H](C)C(=O)N[C@H](C(=O)N[C@@H](CC(C)C)C(=O)N[C@@H](CCC(N)=O)C(=O)N[C@@H](CCCNC(=N)N)C(=O)N[C@@H](CO)C(=O)N[C@@H](CO)C(=O)N[C@@H](CC(C)C)C(=O)N[C@@H](Cc1c[nH]c2ccccc12)C(=O)N[C@@H](CS)C(=O)N[C@@H](CC(C)C)C(=O)N[C@@H](CS)C(=O)O)[C@@H](C)O [Peptide L12c] | No | Glassy | cloudy, large | cloudy | large | < 400 | < 2000 | < 400 | < 2000 | –
CC(C)C[C@H](NC(=O)[C@H](CS)NC(=O)[C@H](Cc1c[nH]c2ccccc12)NC(=O)[C@H](CC(C)C)NC(=O)[C@H](CO)NC(=O)[C@H](CO)NC(=O)[C@H](CCCNC(=N)N)NC(=O)[C@H](CCC(N)=O)NC(=O)[C@H](CC(C)C)NC(=O)[C@@H](N)[C@@H](C)O)C(=O)N[C@@H](CS)C(=O)N[C@@H](CO)C(=O)N[C@@H](CC(N)=O)C(=O)N[C@@H](Cc1c[nH]cn1)C(=O)O [Peptide L12d] (H-TLQRSSLWCLCSNH-OH) | Yes | clear | clear | clear | clear | > 400 | > 2000 | > 400 | > 2000 | –
CC[C@H](C)[C@H](NC(=O)[C@H](CCCCN)NC(=O)[C@H](CO)NC(=O)[C@H](CCC(=O)O)NC(=O)[C@H](C)NC(=O)[C@H](CCCCN)NC(=O)[C@H](CC(C)C)NC(=O)[C@H](Cc1ccccc1)NC(=O)[C@H](CCSC)NC(=O)[C@H](Cc1ccc(O)cc1)NC(=O)CNC(=O)[C@H](CC(=O)O)NC(=O)[C@H](CCCNC(=N)N)NC(=O)[C@H](CCCCN)NC(=O)[C@@H]1CCCN1C(=O)[C@@H](N)CCCCN)C(=O)N[C@@H](CCSC)C(=O)N[C@@H](Cc1ccccc1)C(=O)N[C@@H](C)C(=O)N[C@H](C(=O)N[C@@H](CC(C)C)C(=O)N[C@@H](CCC(N)=O)C(=O)N[C@@H](CCCNC(=N)N)C(=O)N[C@@H](CO)C(=O)N[C@@H](CO)C(=O)N[C@@H](CC(C)C)C(=O)N[C@@H](Cc1c[nH]c2ccccc12)C(=O)N[C@@H](CS)C(=O)N[C@@H](CC(C)C)C(=O)N[C@@H](CS)C(=O)N[C@@H](CO)C(=O)N[C@@H](CC(N)=O)C(=O)N[C@@H](Cc1c[nH]cn1)C(=O)O)[C@@H](C)O [Peptide L15] (H-KPKRDGYMFLKAESKIMFATLQRSSLWCLCSNH-OH; N-terminus and C-terminus assumed) | No | Cloudy over | cloudy | clear | clear | < 400 | < 2000 | > 400 | > 2000 | –
DGYMFLKAESKIMFAT [Peptide L11e] | No | Glassy | cloudy, large | glassy | gel | < 400 | < 2000 | < 400 | < 2000 | –
ESKIMFATLQRSSLWC [Peptide L11g] | No | Glassy | cloudy | clear | gel over time | < 400 | < 2000 | > 400 | < 2000 | –
FLKAESKIMFATLQRS [Peptide L11f] | – | Glassy | cloudy | clear | clear | < 400 | < 2000 | > 400 | > 2000 | –
FLKAESKIMFATLQRSSLWCL [Peptide L11] | – | Glassy | cloudy, | clear | glass | < 400 | < 2000 | > 400 | < 2000 | –
GPPARVPAVPFDLHFCRSSIMKPKRD [Peptide 8] | Yes | – | – | – | – | – | – | – | – | Yes
GPPARVPAVPFDLHFCRSSIMKPKRD [Peptide L8] | – | clear | clear | – | – | > 400 | > 2000 | – | – | –
KKKKKAESKIMFATLQRSSLWCL [Peptide 11d-4K] | Yes | – | – | – | – | – | – | – | – | –
KKKKKPKRDGYMFLKAESKIMFAT [Peptide 10b-4K] | Yes | – | – | – | – | – | – | – | – | –
KPKRDGYMFLKAESKI [Peptide L10c] | Yes | clear | clear | – | – | > 400 | > 2000 | – | – | Yes
KPKRDGYMFLKAESKIMFATLQR [Peptide 10] | Yes | – | – | – | – | – | – | – | – | –
KPKRDGYMFLKAESKIMFATLQR [Peptide L10] | – | clear | clear | – | – | > 400 | > 2000 | – | – | –
LHFCRSSIMKPKRDGYMFLKAESKI [Peptide 9] | Yes | – | – | – | – | – | – | – | – | Yes
LHFCRSSIMKPKRDGYMFLKAESKI [Peptide L9] | – | clear | clear | – | – | > 400 | > 2000 | – | – | –

Where two headings read alike, the source gives them in different places. Where a SMILES comes first, the peptide text is derived from it. Where no end group is shown, it is not given here.
